Data on two molecules can be found in patent EP0536177B1, “THROMBIN INHIBITORS BASED ON THE AMINO ACID SEQUENCE OF HIRUDIN” (MAJESTY (HER) IN RIGHT OF CANADA as represented by THE …, priority 1990, dated 1991).

A value given as a limit tells only on which side of the number the result lay.

Usually Ki stands for a measure of affinity in units of concentration, obtained from inhibition or displacement. Lower therefore signals tighter binding. As a reminder, the IC50 is the concentration at which inhibition is half-maximal. A higher IC50 goes with weaker potency in that assay.

Data set [1] has as its target T1, human α-thrombin (Homo sapiens, UniProt P00734).
T1 construct: the enzyme (human or bovine α-thrombin 0.4 nM)
The experiment in a line: Amidolytic (fluorogenic) assay of thrombin activity, hydrolysis of Tosyl-Gly-Pro-Arg-AMC. The settings on record: mean of three determinations ± SEM, ni: not inhibited. The format is biochemical. The protocol: Thrombin-catalyzed hydrolysis of Tos-Gly-Pro-Arg-pNA was monitored at 405 nm on a Varian Cary 2000 double beam spectrophotometer using substrate concentrations of 2.5, 3.5, 5 and 10 µM in a final volume of 1mL. The hydrolytic reactions were performed at 25°C in 0.1 M Tris-HCl buffer, pH 7.8, containing 0.1 M NaCl and 0.1% PEG 6000. The reactions were initiated by addition of the substrate dissolved in 0.1 M Tris-HCl buffer, pH 7.8 to a preincubated solution of enzyme (0.4 or 0.04 nM) and variable concentrations of inhibitor dissolved in the same buffer. Initial velocities were recorded and Ki values were determined graphically by weighted linear regression of Dixon plots in the case of competitive inhibition, or by the method of Baici (Baici, 1981) for hyperbolic inhibition. Fluorogenic assays were conducted using the same conditions and instrument as above operating in the fluorescence mode in the Ratio (λex=383 nm, λem=455 nm). Fluorescence intensities were calibrated with 7-amino-4-methyl coumarin solution of known concentration. The specificity of the synthetic peptides of the present invention for human α-thrombin may also be determined by comparing their relative inhibitory activities towards both human α-thrombin and bovine α-thrombin and trypsin by comparing K1 values obtained in the amidolytic assay of thrombin activity.

Data set [2] concerns the target T1, human α-thrombin. As to the kind of experiment: Fibrinogen clotting assay. The format is biochemical. To be noted: inhibition of fibrin clot formation by human α-thrombin.
Data set [3] is described as follows: Stability of polypeptides in plasma against proteolysis. The format is in vitro ADME. The settings on record: after 30 minutes at 37°C in reconstituted normal human plasma with thromboplastin and calcium chloride, pH 7.8 (Figure 3); read-out: degraded. On the procedure: The peptides of this invention were evaluated for in vitro plasma stability against proteolysis.
600 µg of peptide was mixed with 250 µl of reconstituted normal human plasma, 250 µl of thromboplastin, 600 µg of calcium chloride and 50 mM NaHPO4 buffer ph 7.8 to a final volume of 900 µl.
The mixture was incubated at 37°C and 100 µl aliquots were removed at designated time intervals. 20 µl of 10% trichloroacetic acid was added to individual aliquot and centrifuged at 12 X K for 10 minutes. The supernatant was injected on a C18 analytical column and chromatographed by standard elution procedure (i.e. at 60% 0.1% TFA/H2O to 0.1 TFA in CH3CN).

On human α-thrombin [1], `CC[C@H](C)[C@H](NC(=O)[C@H](CCC(=O)O)NC(=O)[C@H](CCC(=O)O)NC(=O)[C@H](Cc1ccccc1)NC(=O)[C@H](CC(=O)O)NC(=O)CNC(=O)[C@H](CC(=O)O)NC(=O)[C@H](CC(N)=O)NC(=O)[C@H](Cc1c[nH]cn1)NC(=O)[C@H](CO)NC(=O)[C@H](CCC(N)=O)NC(=O)[C@H]1CCCN1C(=O)[C@H](CCCNC(=N)N)NC(=O)[C@@H]1CCCN1C(=O)[C@@H](Cc1ccccc1)NC(C)=O)C(=O)N1CCC[C@H]1C(=O)N[C@@H](CCC(=O)O)C(=O)N[C@@H](CCC(=O)O)C(=O)N[C@@H](Cc1ccc(O)cc1)C(=O)N[C@@H](CC(C)C)C(=O)N[C@@H](CCC(N)=O)C(=O)O` [P52, [D-Phe^45,Arg^47,D-Pro^48]hirudin^45-65] had a Ki of 46 ± 3 nM.

`CC[C@H](C)[C@H](NC(=O)[C@H](CCC(=O)O)NC(=O)[C@H](CCC(=O)O)NC(=O)[C@H](Cc1ccccc1)NC(=O)[C@H](CC(=O)O)NC(=O)CNC(=O)[C@H](CC(=O)O)NC(=O)[C@H](CC(N)=O)NC(=O)[C@H](Cc1c[nH]cn1)NC(=O)[C@H](CO)NC(=O)[C@H](CCC(N)=O)NC(=O)[C@@H]1CCCN1C(=O)[C@H](CCCNC(=N)N)NC(=O)[C@@H]1CCCN1C(=O)[C@@H](Cc1ccccc1)NC(C)=O)C(=O)N1CCC[C@H]1C(=O)N[C@@H](CCC(=O)O)C(=O)N[C@@H](CCC(=O)O)C(=O)N[C@@H](Cc1ccc(O)cc1)C(=O)N[C@@H](CC(C)C)C(=O)N[C@@H](CCC(N)=O)C(=O)O` [P53, [D-Phe^45,Arg^47]hirudin^45-65] showed an IC50 at human α-thrombin [2] of 4 ± 0.8 nM. Further, in data set [3], the metabolised at 0.5 h, 0.667 mg/mL is greater than 50%. The same molecule yielded a Ki on human α-thrombin [1] of 2.8 ± 0.9 nM.
